Earlier results as cited in patent US7604939B2, “Methods of identifying active BRM expression-promoting HDAC inhibitors” (The Regents of the University of Michigan, priority 2005, dated 2009).

The chains behind the UniProt entries cited, without tags or fusion partners.
UniProt Q9BY41, whole entry: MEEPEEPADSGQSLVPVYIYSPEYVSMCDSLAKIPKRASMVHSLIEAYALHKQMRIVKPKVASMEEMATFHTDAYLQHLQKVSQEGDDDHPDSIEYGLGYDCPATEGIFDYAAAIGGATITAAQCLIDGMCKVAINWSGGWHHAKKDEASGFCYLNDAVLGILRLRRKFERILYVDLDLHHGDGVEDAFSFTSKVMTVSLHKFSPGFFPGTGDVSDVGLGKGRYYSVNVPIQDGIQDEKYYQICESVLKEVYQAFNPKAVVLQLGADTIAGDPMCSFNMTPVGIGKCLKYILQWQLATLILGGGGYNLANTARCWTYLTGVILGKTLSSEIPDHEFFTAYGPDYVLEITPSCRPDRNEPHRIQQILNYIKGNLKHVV
UniProt Q13547, whole entry: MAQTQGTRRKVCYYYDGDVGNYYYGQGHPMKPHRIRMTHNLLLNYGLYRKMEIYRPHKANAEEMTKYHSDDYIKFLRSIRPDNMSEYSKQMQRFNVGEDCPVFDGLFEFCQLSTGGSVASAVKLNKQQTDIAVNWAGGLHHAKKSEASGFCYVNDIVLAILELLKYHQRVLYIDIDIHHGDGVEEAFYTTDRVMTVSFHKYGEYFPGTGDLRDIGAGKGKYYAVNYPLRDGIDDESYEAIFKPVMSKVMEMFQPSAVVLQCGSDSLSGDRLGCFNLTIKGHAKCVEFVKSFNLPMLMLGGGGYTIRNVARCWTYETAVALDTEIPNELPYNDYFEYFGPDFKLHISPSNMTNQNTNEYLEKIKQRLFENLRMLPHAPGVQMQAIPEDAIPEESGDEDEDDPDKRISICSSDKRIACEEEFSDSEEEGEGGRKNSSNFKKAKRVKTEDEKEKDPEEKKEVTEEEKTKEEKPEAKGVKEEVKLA

Tests used:
HDAC8 = HDAC8 (Homo sapiens, UniProt Q9BY41); conditions: Class 1 HDAC; cited from earlier work
HDAC1 = HDAC1 (Homo sapiens, UniProt Q13547); conditions: Class 1 HDAC; cited from earlier work

O=C1N[C@@H](Cc2ccccc2)C(=O)N2CCCC[C@@H]2C(=O)N[C@@H](CCCCCC(=O)[C@@H]2CO2)C(=O)N[C@H]1Cc1ccccc1
Sensitivity of HDAC8 to the inhibitor (HDAC8): No:
Sensitivity of HDAC1 to the inhibitor (HDAC1): Yes
